Membrane permeability of cyclic peptides

Collected by the curators of CycPeptMPDB (Li et al. 2023) from Furukawa et al. 2016, doi:10.1021/acs.jmedchem.6b01246.

PAMPA measures passive passage through an artificial lipid membrane. Permeability is given as log10 of P in cm/s; higher (less negative) is more permeable.

{"smiles": "CCCCCN1CC(=O)N(C)[C@H](CC(C)C)C(=O)N[C@@H](CCCC)C(=O)N2CCC[C@H]2C(=O)N(Cc2ccc3c(c2)OCO3)CC(=O)N[C@@H](C)C1=O", "PAMPA (log10 cm/s)": "-4.84"}
{"smiles": "CCCCCN1CC(=O)N(C)[C@H](CC(C)C)C(=O)N[C@@H](CCCC)C(=O)N2CCC[C@@H]2C(=O)N(CCCOC(C)C)CC(=O)N[C@@H](C)C1=O", "PAMPA (log10 cm/s)": "-4.85"}
{"smiles": "CCCC[C@@H]1NC(=O)[C@@H](CC(C)C)NC(=O)CN(CC2CCOCC2)C(=O)[C@@H](C)NC(=O)CN(CCCOC(C)C)C(=O)[C@@H]2CCCN2C1=O", "PAMPA (log10 cm/s)": "-7.50"}
{"smiles": "CCCC[C@@H]1NC(=O)[C@H](CC(C)C)NC(=O)CN(CC2CCOCC2)C(=O)[C@H](Cc2ccccc2)NC(=O)CN(CCCOC(C)C)C(=O)[C@@H]2CCCN2C1=O", "PAMPA (log10 cm/s)": "-6.04"}
{"smiles": "CCCC[C@@H]1NC(=O)[C@@H](CC(C)C)N(C)C(=O)CN(CC2CCCCC2)C(=O)[C@H](Cc2ccccc2)NC(=O)CN(Cc2ccc3c(c2)OCO3)C(=O)[C@@H]2CCCN2C1=O", "PAMPA (log10 cm/s)": "-6.37"}
{"smiles": "CCCCCN1CC(=O)N[C@H](CC(C)C)C(=O)N[C@@H](CCCC)C(=O)N2CCC[C@@H]2C(=O)N(CC)CC(=O)N[C@H](C)C1=O", "PAMPA (log10 cm/s)": "-6.36"}
{"smiles": "CCCC[C@@H]1NC(=O)[C@H](CC(C)C)NC(=O)CN(CC2CCCCC2)C(=O)[C@@H](Cc2ccccc2)NC(=O)CN(CCCOC(C)C)C(=O)[C@H]2CCCN2C1=O", "PAMPA (log10 cm/s)": "-5.22"}
{"smiles": "CCCC[C@@H]1NC(=O)[C@H](CC(C)C)NC(=O)CN(CC2CCOCC2)C(=O)[C@H](C)NC(=O)CN(Cc2ccc3c(c2)OCO3)C(=O)[C@@H]2CCCN2C1=O", "PAMPA (log10 cm/s)": "-6.54"}
{"smiles": "CCCC[C@@H]1NC(=O)[C@@H](CC(C)C)N(C)C(=O)CN(CC2CCOCC2)C(=O)[C@@H](C)NC(=O)CN(Cc2ccc3c(c2)OCO3)C(=O)[C@H]2CCCN2C1=O", "PAMPA (log10 cm/s)": "-6.05"}
{"smiles": "CCCC[C@@H]1NC(=O)[C@@H](CC(C)C)NC(=O)CN(CC2CCCCC2)C(=O)[C@@H](C)NC(=O)CN(CCCOC(C)C)C(=O)[C@@H]2CCCN2C1=O", "PAMPA (log10 cm/s)": "-5.81"}
{"smiles": "CCCC[C@@H]1NC(=O)[C@@H](CC(C)C)NC(=O)CN(CC2CCCCC2)C(=O)[C@@H](Cc2ccccc2)NC(=O)CN(CC)C(=O)[C@@H]2CCCN2C1=O", "PAMPA (log10 cm/s)": "-5.04"}
{"smiles": "CCCC[C@@H]1NC(=O)[C@H](CC(C)C)NC(=O)CN(CC2CCCCC2)C(=O)[C@@H](Cc2ccccc2)NC(=O)CN(Cc2ccc3c(c2)OCO3)C(=O)[C@@H]2CCCN2C1=O", "PAMPA (log10 cm/s)": "-5.64"}
{"smiles": "CCCCCN1CC(=O)N(C)[C@@H](CC(C)C)C(=O)N[C@@H](CCCC)C(=O)N2CCC[C@H]2C(=O)N(Cc2ccc3c(c2)OCO3)CC(=O)N[C@@H](Cc2ccccc2)C1=O", "PAMPA (log10 cm/s)": "-6.06"}
{"smiles": "CCCCCN1CC(=O)N[C@H](CC(C)C)C(=O)N[C@@H](CCCC)C(=O)N2CCC[C@@H]2C(=O)N(Cc2ccc3c(c2)OCO3)CC(=O)N[C@H](Cc2ccccc2)C1=O", "PAMPA (log10 cm/s)": "-5.44"}
{"smiles": "CCCC[C@@H]1NC(=O)[C@H](CC(C)C)N(C)C(=O)CN(CC2CCCCC2)C(=O)[C@H](C)NC(=O)CN(Cc2ccc3c(c2)OCO3)C(=O)[C@@H]2CCCN2C1=O", "PAMPA (log10 cm/s)": "-4.93"}
{"smiles": "CCCC[C@@H]1NC(=O)[C@H](CC(C)C)N(C)C(=O)CN(CC2CCCCC2)C(=O)[C@H](Cc2ccccc2)NC(=O)CN(CC)C(=O)[C@@H]2CCCN2C1=O", "PAMPA (log10 cm/s)": "-5.07"}
{"smiles": "CCCC[C@@H]1NC(=O)[C@@H](CC(C)C)NC(=O)CN(CC2CCCCC2)C(=O)[C@H](C)NC(=O)CN(Cc2ccc3c(c2)OCO3)C(=O)[C@@H]2CCCN2C1=O", "PAMPA (log10 cm/s)": "-5.01"}
{"smiles": "CCCC[C@@H]1NC(=O)[C@H](CC(C)C)NC(=O)CN(CC2CCCCC2)C(=O)[C@@H](Cc2ccccc2)NC(=O)CN(Cc2ccc3c(c2)OCO3)C(=O)[C@H]2CCCN2C1=O", "PAMPA (log10 cm/s)": "-5.62"}
{"smiles": "CCCC[C@@H]1NC(=O)[C@H](CC(C)C)N(C)C(=O)CN(CC2CCCCC2)C(=O)[C@H](C)NC(=O)CN(Cc2ccc3c(c2)OCO3)C(=O)[C@H]2CCCN2C1=O", "PAMPA (log10 cm/s)": "-5.12"}
{"smiles": "CCCC[C@@H]1NC(=O)[C@H](CC(C)C)NC(=O)CN(CC2CCOCC2)C(=O)[C@@H](Cc2ccccc2)NC(=O)CN(CCCOC(C)C)C(=O)[C@H]2CCCN2C1=O", "PAMPA (log10 cm/s)": "-6.33"}
{"smiles": "CCCC[C@@H]1NC(=O)[C@@H](CC(C)C)NC(=O)CN(CC2CCCCC2)C(=O)[C@@H](C)NC(=O)CN(Cc2ccc3c(c2)OCO3)C(=O)[C@H]2CCCN2C1=O", "PAMPA (log10 cm/s)": "-5.19"}
{"smiles": "CCCCCN1CC(=O)N(C)[C@@H](CC(C)C)C(=O)N[C@@H](CCCC)C(=O)N2CCC[C@H]2C(=O)N(CCCOC(C)C)CC(=O)N[C@H](C)C1=O", "PAMPA (log10 cm/s)": "-5.23"}
{"smiles": "CCCCCN1CC(=O)N(C)[C@H](CC(C)C)C(=O)N[C@@H](CCCC)C(=O)N2CCC[C@@H]2C(=O)N(CC)CC(=O)N[C@@H](Cc2ccccc2)C1=O", "PAMPA (log10 cm/s)": "-5.11"}

Extract of 3 entries:

structure (SMILES)	PAMPA (log10 cm/s)
CCCC[C@@H]1NC(=O)[C@@H](CC(C)C)NC(=O)CN(CC2CCCCC2)C(=O)[C@@H](C)NC(=O)CN(CCCOC(C)C)C(=O)[C@@H]2CCCN2C1=O	-5.81
CCCC[C@@H]1NC(=O)[C@H](CC(C)C)NC(=O)CN(CC2CCCCC2)C(=O)[C@@H](Cc2ccccc2)NC(=O)CN(Cc2ccc3c(c2)OCO3)C(=O)[C@H]2CCCN2C1=O	-5.62
CCCCCN1CC(=O)N(C)[C@@H](CC(C)C)C(=O)N[C@@H](CCCC)C(=O)N2CCC[C@H]2C(=O)N(CCCOC(C)C)CC(=O)N[C@H](C)C1=O	-5.23

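The data file gives no further conditions (lipid, pH, time, direction or concentration), and values from different papers need not be comparable. The list need not hold all peptides of the study. Peptides that the database sets to -10, its floor, are left out.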